The target of test [1] is Metabotropic glutamate receptor 5 (Homo sapiens, UniProt P41594). Briefly: Displacement of [3H]MPEP from cloned mGluR5 expressed in HEK293T cells by scintillation counting. The test is classed as cell-based, HEK-293T.
The target in test [2] is Metabotropic glutamate receptor 5 (Rattus norvegicus, UniProt P31424). In words: Antagonist activity at rat mGluR5 expressed in HEK293A cells assessed as glutamate-induced calcium flux preincubated for 140 sec before glutamate challenge by calcium fluorescence assay. In kind it is functional, cell-based, HEK293-A. Summed up: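 Stable HEK 293A line plated at 20K cells/well and grown overnight at 37 °C, 6% CO2. Loaded with 2 µM Fluo-4 AM in HBSS/20 mM HEPES/2.5 mM probenecid at 37 °C, then buffer at room temperature. Ten-point 1:3 serial dilutions were added at t = 3 s, followed by EC80 glutamate for 60 s. Ca2+ fluorescence read kinetically at 1 Hz. Four-point logistic fit, multi-day averages.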

The chains behind the UniProt entries cited, without tags or fusion partners.
UniProt P41594, whole entry: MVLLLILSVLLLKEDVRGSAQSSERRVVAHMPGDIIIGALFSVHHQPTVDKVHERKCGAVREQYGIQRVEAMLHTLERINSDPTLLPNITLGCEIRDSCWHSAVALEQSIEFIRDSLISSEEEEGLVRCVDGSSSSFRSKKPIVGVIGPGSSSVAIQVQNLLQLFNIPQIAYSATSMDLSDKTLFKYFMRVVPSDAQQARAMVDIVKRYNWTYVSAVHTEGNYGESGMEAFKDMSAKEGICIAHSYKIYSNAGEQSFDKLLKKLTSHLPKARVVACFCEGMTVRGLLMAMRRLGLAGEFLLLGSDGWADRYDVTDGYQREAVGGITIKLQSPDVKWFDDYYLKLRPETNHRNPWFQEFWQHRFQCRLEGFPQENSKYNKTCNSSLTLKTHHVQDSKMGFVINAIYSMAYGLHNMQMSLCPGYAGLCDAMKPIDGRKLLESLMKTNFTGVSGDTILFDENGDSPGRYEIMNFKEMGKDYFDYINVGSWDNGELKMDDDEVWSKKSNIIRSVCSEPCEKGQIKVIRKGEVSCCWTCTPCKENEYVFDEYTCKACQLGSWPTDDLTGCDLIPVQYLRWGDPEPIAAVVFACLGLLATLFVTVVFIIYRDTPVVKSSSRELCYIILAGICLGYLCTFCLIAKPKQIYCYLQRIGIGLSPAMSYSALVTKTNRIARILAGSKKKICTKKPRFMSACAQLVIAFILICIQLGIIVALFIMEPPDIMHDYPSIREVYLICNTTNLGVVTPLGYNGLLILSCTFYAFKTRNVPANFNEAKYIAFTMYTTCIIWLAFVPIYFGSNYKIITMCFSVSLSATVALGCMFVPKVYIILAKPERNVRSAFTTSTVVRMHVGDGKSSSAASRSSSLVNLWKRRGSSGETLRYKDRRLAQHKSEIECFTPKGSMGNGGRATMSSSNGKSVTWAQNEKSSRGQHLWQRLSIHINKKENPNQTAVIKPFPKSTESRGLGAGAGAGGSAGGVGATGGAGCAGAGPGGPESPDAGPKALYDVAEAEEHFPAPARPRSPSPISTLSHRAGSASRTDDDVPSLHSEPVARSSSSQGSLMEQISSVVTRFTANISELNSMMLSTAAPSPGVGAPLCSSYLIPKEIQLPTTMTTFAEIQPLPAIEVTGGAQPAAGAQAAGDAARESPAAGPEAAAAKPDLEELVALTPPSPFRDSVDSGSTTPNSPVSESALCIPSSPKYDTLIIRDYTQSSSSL
UniProt P31424, whole entry: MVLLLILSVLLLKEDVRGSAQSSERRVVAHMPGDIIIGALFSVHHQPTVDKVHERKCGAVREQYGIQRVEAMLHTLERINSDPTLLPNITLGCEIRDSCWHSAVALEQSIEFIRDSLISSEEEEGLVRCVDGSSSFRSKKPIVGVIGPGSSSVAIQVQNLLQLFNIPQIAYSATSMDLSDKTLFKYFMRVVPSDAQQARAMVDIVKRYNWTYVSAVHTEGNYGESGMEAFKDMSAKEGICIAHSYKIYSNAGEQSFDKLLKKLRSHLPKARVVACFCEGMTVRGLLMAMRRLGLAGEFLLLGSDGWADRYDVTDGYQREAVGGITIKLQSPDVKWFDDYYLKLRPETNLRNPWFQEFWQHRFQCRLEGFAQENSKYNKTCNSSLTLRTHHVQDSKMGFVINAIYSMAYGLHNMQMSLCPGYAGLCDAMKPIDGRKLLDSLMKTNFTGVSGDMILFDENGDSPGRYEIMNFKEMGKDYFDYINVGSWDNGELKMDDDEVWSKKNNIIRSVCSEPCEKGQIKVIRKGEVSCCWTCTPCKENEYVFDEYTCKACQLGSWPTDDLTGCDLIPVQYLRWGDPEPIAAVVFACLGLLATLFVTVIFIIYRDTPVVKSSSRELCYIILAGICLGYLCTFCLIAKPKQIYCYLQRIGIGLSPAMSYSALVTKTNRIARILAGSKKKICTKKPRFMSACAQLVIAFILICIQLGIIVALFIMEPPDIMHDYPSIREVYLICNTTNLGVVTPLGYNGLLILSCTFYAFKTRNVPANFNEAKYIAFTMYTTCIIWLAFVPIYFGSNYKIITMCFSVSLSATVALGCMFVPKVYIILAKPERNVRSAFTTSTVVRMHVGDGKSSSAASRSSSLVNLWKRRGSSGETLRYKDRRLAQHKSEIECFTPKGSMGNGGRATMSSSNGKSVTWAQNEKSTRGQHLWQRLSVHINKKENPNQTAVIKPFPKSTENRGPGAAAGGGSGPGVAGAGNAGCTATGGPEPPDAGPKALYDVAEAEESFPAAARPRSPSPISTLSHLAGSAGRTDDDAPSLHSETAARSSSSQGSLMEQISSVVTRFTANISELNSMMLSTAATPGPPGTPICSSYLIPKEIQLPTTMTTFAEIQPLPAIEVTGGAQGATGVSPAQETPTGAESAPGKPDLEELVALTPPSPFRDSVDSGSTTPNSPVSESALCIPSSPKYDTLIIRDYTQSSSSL

Results on 7 compounds are retold here after ChEMBL document CHEMBL1136938, “Structure-activity relationships comparing N-(6-methylpyridin-yl)-substituted aryl amides to 2-methyl-6-(substituted-arylethynyl)pyridines or 2-methyl-4-(substituted-arylethynyl)thiazoles as novel metabotropic glutamate receptor subtype 5 antagonists” (J Med Chem, 2009).

The structures appear in SMILES notation.

`Cc1nc(C#Cc2ccc(-c3ccccc3)nc2)cs1`: the Ki in test [1] came to 5.49 nM. Besides, in test [2], the IC50 came to 1.21 nM.
As to `Cc1nc(C#Cc2cccnc2)cs1`, in test [2], the IC50 was 13.6 nM.
In test [1], `Cc1nc(C#Cc2cccc(-c3ccccc3)c2)cs1` had a Ki of 10.8 nM. Further, in test [2], the IC50 amounted to 3.05 nM.
For `Cc1nc(C#Cc2ccc(-c3cccnc3)nc2)cs1` the same measures were 5.65 nM and 5.24 nM.
For `Cc1nc(C#Cc2ccc(-c3cccnc3)c(F)c2)cs1` the same measures were 11.4 nM and 3.43 nM.
For `Cc1cccc(NC(=O)c2ccc(-c3cccc(F)c3)c(C#N)c2)n1` the same measures were 22 nM and 25.3 nM.
On to `Cc1cccc(C#Cc2ccccc2)n1`, for which the Ki in test [1] was 13 nM. For the same compound, in test [2], the IC50 stood at 3.54 nM.

Broadly, the Ki is the equilibrium dissociation constant of an inhibitor or competing ligand from its target. Low values mean tighter binding, high ones weaker binding. Broadly, the IC50 is the concentration at which inhibition is half-maximal.
